US20070078263A1, “BIARYL SUBSTITUTED HETEROCYCLE INHIBITORS OF LTA4H FOR TREATING INFLAMMATION” (deCODE Chemistry, Inc., priority 2005, published 2007)
Where a name gives a salt, the structure may show the parent alone. Read-outs that look alike come from different tables or passages of the source.

How the values were obtained:
human whole blood = assay: Ex vivo assay testing inhibitory activity in human whole blood after stimulation with calcium ionophore (LTB4 ELISA); type: cell-based; details: Ionomycin 20 μM, read-out: hWBIC50;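 also: heparinized human blood preincubated 15 min at 37 °C with compound, then ionomycin-stimulated for 30 min, LTB4 in plasma supernatant quantified by ELISA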
human LTA4 hydrolase = target: T1, human LTA4 hydrolase (Homo sapiens, UniProt P09960); assay: In vitro assay testing inhibitory activity against purified recombinant human LTA4 hydrolase (LTB4 formed, LC-MS/MS); type: biochemical;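 also: 200 nM enzyme preincubated 10 min at room temperature with serial inhibitor dilutions in pH 8.0 Tris buffer with BSA and 10% DMSO, then 2 µM LTA4 added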
T1 construct: A human LTA4 hydrolase full-length cDNA clone (NM 000895) was purchased; His tag (6xHis of vector pDEST17); made in house; host or cells: Escherichia coli BL21-AI
T1 sequence (P09960 1-611): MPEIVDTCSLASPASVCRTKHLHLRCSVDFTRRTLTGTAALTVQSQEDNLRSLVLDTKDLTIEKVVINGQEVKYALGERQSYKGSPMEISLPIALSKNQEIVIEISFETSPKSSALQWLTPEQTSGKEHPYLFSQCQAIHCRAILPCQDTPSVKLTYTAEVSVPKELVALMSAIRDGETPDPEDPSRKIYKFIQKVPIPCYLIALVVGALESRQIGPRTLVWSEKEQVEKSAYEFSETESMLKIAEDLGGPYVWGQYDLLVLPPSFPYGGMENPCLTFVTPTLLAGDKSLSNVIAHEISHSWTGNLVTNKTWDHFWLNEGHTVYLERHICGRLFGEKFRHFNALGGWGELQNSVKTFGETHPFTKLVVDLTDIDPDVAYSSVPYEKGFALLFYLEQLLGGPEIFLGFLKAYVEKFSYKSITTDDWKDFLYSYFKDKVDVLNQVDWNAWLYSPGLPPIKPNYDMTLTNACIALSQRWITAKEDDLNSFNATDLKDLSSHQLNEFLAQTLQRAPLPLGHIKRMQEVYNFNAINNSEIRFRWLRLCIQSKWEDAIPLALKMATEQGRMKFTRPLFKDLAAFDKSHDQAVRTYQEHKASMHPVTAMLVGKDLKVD

[1] = recombinant human LTA4 hydrolase 200 nM, LTA4 2 μM, read-out: AvgIC50

Row | Compound | IC50 (human whole blood) [µM] | IC50 (human LTA4 hydrolase) [µM] | IC50 (human LTA4 hydrolase; [1]) [µM]
1 | c1ccc(Cc2ccc(OC[C@H]3CCCN3)cc2)cc1 [Example 1, (R)-2-(4-Benzylphenoxymethyl)pyrrolidine] | < 5 | < 5 | 
2 | c1ccc(Cc2ccc(OC[C@@H]3CCCN3)cc2)cc1 [Example 2, (S)-2-(4-Benzylphenoxymethyl)pyrrolidine] |  | < 5 | 
3 | O=C(O)CCCN1CCC[C@@H]1COc1ccc(Oc2ccc(Cl)cc2)cc1 [Example 20, 4-{(R)-2-[4-(4-Chloro-phenoxy)-phenoxymethyl]-pyrrolidin-1-yl}-butyric acid hydrochloride] |  |  | < 5
4 | O=C(O)CCCN1CCC[C@H]1COc1ccc(Oc2ccc(Cl)cc2)cc1 [Example 22, 4-{(S)-2-[4-(4-Chloro-phenoxy)-phenoxymethyl]-pyrrolidin-1-yl}-butyric acid hydrochloride] |  |  | < 5
5 | c1ccc(CNc2ccc(OC[C@H]3CCCN3)cc2)cc1 [Example 48, Benzyl-[4-((R)-1-pyrrolidin-2-ylmethoxy)-phenyl]-amine] | < 5 |  | 
6 | [2H]C([2H])(CN1CCC[C@H]1COc1ccc(Oc2ccc(Cl)cc2)cc1)C([2H])([2H])C(=O)O [Example 68, 4-{(S)-2-[4-(4-chloro-phenyoxy)-phenoxymethyl]-pyrrolidin-1-yl}-butyric acid (D4)] |  |  | < 5
